Test results: paper PMC7567794 (Scientific Reports, 2020)

By UniProt entry, the sequences of proteins in these tests, tags left out. Residues count along the entry.
UniProt P13726, 33-251: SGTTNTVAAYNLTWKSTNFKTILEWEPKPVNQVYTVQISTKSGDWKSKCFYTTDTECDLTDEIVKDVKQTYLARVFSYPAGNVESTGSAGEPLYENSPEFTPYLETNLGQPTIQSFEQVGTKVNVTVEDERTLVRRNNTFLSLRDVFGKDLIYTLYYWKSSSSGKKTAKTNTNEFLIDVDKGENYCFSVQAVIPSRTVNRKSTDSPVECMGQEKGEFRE

Target: T1, tissue factor (S33 to E251) (Homo sapiens, UniProt P13726)
T1 construct: tissue factor (TF), residues S33 to E251; the antigen of the antibody D3h44 in PDB 1JPS; The tag was removed with Ulp1; tag-free TF was used; Antigen residues named in the text (S202, K169, P194, I152) follow the numbering of PDB 1JPS, not that of the construct limits; also called TF; antigen; source: E. coli BL21 (DE3), purified (Ni-NTA, SEC); not shown: His6, N-terminal, cleaved; SUMO, …
Assay: SPR; Biacore 8K; TF immobilised on a CM5 chip by amine coupling (450-750 response units); Fab as analyte; single-cycle kinetics, association 120 s, dissociation 1800 s, no regeneration; PBS with 0.005% Tween-20; three measurements
Conditions: both partners purified

Kd: 45 pM
koff: 6.2e-05 s⁻¹
kon: 1.4e+06 M⁻¹ s⁻¹
B1: anti-tissue factor antibody D3h44 Fab, wild-type (Fab, V domains shown)
VH: EVQLVESGGGLVQPGGSLRLSCAASGFNIKEYYMHWVRQAPGKGLEWVGLIDPEQGNTIYDPKFQDRATISADNSKNTAYLQMNSLRAEDTAVYYCARDTAAYFDYWGQGTLVTVSS
VL: DIQMTQSPSSLSASVGDRVTITCRASRDIKSYLNWYQQKPGKAPKVLIYYATSLAEGVPSRFSGSGSGTDYTLTISSLQPEDFATYYCLQHGESPWTFGQGTKVEIK
notes: heavy chain of the D3h44 Fab; light chain of the D3h44 Fab; also called 1JPS WT; 1JPS Fab; source: ExpiCHO, purified (Ni-NTA, SEC)
